Legend:
Assay in all cases: Kinase Profiling Assay
Format in all cases: biochemical
Settings in all cases: 100 μM peptide
cKit(V560G)(h) = cKit(V560G)(h) (Homo sapiens, UniProt P10721, V560G)
Method in brief: (§1)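 Duplicate activity readings per kinase; peptide inhibitors of MK2 profiled against 266 human kinases for selectivity.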

The chains behind the UniProt entries cited, without tags or fusion partners. Where a name states a change or a piece, a line headed by the entry shows the natural chain unless it says otherwise.
UniProt Q86Z02: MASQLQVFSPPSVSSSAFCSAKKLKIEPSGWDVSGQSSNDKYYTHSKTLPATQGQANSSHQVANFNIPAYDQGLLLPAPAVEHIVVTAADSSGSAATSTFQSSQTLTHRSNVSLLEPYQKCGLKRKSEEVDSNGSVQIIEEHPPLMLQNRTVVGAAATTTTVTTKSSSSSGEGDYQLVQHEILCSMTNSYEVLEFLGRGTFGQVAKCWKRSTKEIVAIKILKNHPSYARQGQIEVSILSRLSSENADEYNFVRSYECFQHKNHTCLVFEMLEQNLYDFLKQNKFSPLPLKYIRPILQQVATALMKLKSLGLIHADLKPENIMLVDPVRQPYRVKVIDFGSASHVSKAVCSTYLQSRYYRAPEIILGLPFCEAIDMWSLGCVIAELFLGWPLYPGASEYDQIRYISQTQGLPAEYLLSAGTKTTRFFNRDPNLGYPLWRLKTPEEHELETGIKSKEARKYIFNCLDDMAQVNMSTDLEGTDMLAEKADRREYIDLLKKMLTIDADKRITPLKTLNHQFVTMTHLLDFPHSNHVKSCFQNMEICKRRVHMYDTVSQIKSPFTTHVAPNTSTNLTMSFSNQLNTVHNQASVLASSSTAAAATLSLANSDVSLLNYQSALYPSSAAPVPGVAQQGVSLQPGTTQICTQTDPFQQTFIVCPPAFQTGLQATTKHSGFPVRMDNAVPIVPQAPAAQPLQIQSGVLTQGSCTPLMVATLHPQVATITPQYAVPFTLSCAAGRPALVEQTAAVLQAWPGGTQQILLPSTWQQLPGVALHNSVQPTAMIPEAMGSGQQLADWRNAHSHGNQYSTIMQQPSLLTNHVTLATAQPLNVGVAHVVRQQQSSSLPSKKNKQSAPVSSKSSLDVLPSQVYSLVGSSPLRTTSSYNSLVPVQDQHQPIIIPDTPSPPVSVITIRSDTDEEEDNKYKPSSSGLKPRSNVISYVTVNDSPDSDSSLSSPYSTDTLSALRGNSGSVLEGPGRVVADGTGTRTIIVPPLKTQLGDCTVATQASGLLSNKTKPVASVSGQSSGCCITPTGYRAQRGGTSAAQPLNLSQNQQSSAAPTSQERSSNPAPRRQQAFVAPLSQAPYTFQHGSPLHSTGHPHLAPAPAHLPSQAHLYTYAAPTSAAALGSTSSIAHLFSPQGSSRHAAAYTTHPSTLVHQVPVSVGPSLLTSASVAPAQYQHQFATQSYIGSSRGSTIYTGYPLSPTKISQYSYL
UniProt Q9NYY3: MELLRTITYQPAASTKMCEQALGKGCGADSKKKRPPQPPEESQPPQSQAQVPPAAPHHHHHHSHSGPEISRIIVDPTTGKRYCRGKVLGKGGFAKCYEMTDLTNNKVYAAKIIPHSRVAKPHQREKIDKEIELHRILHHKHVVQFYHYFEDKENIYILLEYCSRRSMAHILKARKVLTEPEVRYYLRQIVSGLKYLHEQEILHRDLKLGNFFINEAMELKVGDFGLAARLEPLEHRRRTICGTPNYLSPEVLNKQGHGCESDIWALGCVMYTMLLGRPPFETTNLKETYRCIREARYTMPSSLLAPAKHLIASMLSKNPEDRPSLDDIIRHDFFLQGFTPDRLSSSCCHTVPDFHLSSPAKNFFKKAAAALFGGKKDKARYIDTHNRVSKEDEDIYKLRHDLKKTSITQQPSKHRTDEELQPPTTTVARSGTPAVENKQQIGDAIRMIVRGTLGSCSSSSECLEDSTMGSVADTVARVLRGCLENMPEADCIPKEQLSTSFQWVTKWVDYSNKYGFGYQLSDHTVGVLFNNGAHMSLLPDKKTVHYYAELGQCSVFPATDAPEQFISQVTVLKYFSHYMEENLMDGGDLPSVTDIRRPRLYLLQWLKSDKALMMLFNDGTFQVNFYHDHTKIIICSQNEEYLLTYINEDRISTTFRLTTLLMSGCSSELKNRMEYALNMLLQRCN
UniProt O14920: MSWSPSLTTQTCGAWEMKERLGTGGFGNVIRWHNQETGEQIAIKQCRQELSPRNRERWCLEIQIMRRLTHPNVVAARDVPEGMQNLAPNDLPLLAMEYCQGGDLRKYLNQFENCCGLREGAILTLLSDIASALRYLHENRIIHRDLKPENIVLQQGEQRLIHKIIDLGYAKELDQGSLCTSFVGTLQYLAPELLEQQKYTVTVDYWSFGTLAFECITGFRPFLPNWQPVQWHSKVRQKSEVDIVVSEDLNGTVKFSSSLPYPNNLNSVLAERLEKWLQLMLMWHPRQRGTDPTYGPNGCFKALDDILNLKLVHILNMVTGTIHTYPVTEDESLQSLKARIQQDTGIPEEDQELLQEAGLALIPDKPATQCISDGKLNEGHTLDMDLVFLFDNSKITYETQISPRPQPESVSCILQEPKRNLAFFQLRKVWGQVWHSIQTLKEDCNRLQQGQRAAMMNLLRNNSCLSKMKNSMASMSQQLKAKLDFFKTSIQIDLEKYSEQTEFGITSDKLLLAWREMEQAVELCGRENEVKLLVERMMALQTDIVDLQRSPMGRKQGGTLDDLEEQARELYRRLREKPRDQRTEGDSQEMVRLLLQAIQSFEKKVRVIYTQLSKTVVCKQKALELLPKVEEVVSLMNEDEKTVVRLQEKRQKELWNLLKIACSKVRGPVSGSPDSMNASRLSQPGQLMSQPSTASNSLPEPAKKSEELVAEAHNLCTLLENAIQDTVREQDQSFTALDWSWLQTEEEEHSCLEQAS
UniProt Q00526: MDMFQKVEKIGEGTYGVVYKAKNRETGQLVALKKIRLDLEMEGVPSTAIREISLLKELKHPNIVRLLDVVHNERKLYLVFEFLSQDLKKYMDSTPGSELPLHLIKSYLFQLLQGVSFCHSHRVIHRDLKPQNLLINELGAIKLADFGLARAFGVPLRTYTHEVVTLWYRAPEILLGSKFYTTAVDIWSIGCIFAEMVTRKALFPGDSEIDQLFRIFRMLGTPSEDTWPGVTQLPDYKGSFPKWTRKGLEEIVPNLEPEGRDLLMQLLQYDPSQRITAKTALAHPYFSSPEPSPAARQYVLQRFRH
UniProt P53355: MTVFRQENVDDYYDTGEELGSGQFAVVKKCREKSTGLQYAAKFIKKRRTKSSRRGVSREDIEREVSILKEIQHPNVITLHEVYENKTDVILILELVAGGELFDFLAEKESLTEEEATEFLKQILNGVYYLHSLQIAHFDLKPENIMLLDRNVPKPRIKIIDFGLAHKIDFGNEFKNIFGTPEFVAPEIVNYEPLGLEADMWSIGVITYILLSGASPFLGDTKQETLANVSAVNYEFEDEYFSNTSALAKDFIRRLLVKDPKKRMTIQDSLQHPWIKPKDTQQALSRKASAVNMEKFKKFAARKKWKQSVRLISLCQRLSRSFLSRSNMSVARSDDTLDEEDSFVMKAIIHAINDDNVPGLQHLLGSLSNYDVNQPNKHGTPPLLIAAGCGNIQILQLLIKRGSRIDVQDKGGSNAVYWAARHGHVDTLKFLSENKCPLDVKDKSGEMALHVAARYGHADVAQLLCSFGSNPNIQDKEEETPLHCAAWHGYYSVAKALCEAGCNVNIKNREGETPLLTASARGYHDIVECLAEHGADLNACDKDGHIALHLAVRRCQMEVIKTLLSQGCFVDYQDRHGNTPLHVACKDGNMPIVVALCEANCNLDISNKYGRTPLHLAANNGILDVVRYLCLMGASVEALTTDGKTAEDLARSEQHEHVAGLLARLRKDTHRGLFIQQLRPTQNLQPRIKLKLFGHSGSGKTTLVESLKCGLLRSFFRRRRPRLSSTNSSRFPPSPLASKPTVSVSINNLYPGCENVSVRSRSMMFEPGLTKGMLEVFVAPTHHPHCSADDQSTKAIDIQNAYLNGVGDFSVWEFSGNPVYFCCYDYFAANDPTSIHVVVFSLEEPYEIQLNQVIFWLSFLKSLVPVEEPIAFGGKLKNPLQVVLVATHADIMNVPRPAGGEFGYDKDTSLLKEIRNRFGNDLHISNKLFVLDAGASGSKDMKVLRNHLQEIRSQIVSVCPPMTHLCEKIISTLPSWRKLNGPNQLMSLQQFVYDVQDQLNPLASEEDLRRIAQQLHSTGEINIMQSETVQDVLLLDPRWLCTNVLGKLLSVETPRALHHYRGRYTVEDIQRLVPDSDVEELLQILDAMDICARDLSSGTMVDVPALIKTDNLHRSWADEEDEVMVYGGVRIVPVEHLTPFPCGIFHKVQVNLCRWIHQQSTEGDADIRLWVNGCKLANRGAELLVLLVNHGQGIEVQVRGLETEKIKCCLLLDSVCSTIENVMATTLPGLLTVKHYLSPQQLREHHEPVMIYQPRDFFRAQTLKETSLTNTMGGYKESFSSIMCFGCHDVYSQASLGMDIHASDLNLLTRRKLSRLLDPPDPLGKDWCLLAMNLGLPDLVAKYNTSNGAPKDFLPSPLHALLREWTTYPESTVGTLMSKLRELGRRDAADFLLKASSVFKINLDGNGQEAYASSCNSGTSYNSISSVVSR
UniProt P08631: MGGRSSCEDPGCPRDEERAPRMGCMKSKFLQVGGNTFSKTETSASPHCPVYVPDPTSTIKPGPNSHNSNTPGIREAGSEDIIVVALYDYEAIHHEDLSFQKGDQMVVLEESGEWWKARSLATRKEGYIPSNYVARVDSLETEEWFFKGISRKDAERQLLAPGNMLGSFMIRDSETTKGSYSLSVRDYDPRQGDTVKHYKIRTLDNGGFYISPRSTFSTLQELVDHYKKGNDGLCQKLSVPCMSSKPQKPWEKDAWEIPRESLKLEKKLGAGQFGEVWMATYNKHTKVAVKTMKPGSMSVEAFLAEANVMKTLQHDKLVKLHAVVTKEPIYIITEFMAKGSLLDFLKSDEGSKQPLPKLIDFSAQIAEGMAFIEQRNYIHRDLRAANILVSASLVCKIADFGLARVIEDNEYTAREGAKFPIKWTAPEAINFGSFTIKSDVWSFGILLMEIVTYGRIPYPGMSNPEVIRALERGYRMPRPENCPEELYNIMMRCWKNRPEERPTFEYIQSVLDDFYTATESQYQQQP

Abl(h) = Abl(h) (Homo sapiens, UniProt P00519)
Method in brief: as §1

TAO3(h) = molecular target: T1, TAO3(h) (Homo sapiens, UniProt Q9H2K8)
T1 sequence (Q9H2K8 1-898): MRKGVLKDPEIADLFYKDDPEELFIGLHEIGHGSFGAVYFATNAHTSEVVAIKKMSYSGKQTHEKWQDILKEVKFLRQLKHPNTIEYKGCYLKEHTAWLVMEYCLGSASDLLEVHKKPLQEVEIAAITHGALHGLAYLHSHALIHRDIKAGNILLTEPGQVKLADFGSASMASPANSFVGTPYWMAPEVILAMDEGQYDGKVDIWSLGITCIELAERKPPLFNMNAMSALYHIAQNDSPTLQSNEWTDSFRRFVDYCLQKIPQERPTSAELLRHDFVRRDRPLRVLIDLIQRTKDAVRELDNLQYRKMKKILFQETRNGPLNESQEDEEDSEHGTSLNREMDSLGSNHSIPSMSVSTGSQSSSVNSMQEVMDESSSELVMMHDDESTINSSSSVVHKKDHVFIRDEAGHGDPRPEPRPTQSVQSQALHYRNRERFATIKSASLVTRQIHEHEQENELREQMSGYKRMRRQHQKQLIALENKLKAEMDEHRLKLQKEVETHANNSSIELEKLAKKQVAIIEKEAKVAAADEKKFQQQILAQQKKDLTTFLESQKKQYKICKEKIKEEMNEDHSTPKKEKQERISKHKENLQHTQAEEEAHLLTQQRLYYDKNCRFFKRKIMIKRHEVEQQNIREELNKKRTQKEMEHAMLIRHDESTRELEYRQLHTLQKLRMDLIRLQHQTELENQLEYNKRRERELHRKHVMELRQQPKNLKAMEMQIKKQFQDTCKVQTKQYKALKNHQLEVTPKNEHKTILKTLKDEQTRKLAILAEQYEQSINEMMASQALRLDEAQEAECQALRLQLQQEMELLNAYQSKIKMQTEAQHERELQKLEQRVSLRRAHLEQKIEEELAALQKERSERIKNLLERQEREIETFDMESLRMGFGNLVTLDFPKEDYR
Method in brief: as §1

PrKX(h) = molecular target: T2, PrKX(h) (Homo sapiens, UniProt P51817)
T2 construct: purchased Millipore (IC50 Profiler Express service)
T2 sequence (P51817 1-358): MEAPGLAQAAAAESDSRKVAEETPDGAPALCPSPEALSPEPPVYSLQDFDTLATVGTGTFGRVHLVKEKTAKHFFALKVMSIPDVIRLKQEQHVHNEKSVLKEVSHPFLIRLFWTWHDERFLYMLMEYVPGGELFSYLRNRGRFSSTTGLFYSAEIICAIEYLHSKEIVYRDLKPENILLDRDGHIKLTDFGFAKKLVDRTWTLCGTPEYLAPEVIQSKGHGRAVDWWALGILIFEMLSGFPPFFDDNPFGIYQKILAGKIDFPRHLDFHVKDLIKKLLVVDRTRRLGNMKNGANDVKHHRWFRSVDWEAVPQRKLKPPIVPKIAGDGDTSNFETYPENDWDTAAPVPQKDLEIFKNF
Method in brief: as §1

SGK(h) = molecular target: T3, SGK(h) (Homo sapiens, UniProt O00141)
T3 sequence (O00141 1-431): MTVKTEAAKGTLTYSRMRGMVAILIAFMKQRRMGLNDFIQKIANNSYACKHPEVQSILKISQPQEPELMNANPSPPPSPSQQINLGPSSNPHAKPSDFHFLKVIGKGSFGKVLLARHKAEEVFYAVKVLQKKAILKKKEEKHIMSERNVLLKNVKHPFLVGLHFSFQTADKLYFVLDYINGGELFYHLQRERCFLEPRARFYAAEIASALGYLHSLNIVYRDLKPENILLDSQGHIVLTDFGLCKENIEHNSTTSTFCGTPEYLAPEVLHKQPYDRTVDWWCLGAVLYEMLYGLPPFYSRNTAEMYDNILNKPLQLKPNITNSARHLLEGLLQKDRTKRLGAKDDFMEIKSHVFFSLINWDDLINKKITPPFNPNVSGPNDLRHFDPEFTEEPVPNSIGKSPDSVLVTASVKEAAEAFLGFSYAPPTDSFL
Method in brief: as §1

HIPK1(h) = molecular target: T4, HIPK1(h) (Homo sapiens, UniProt Q86Z02)
T4 construct: purchased Millipore
Method in brief: as §1

Snk(h) = Snk(h) (Homo sapiens, UniProt Q9NYY3)
Method in brief: as §1

SGK2(h) = molecular target: T5, SGK2(h) (Homo sapiens, UniProt Q9HBY8)
T5 sequence (Q9HBY8 1-367): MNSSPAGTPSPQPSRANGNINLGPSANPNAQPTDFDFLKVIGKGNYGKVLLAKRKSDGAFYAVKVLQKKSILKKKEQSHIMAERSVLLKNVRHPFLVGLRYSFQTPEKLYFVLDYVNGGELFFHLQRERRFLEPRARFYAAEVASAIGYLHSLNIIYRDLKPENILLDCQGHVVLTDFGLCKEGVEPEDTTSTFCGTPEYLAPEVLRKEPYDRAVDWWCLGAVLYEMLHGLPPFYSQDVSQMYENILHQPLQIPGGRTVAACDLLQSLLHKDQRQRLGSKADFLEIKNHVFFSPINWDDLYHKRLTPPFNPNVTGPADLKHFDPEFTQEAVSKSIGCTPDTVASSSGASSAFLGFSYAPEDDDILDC
Method in brief: as §1

IKKβ(h) = molecular target: T6, IKKβ(h) (Homo sapiens, UniProt O14920)
T6 construct: purchased Millipore
Method in brief: as §1

CDK3/cyclinE(h) = CDK3/cyclinE(h) (Homo sapiens, UniProt Q00526)
Method in brief: as §1

CDK2/cyclinE(h) = CDK2/cyclinE(h) (Homo sapiens, UniProt P24941)
Method in brief: as §1

c-RAF(h) = c-RAF(h) (Homo sapiens, UniProt P04049)
Method in brief: as §1

DAPK1(h) = DAPK1(h) (Homo sapiens, UniProt P53355)
Method in brief: as §1

Hck(h) = molecular target: T7, Hck(h) (Homo sapiens, UniProt P08631)
T7 construct: purchased Millipore
Method in brief: as §1

For “YARAAARQARAKALNRQLGVA (Mammalian) [MMI-0200]”, the “cKit(V560G)(h) % activity” value (cKit(V560G)(h)) was 115%, the “Abl(h) % activity” value (Abl(h)) was 107% and the “TAO3(h) % activity” value (TAO3(h)) was 102%. The “PrKX(h) % activity” value (PrKX(h)) was 112%, the “SGK(h) % activity” value (SGK(h)) was 115% and the “HIPK1(h) % activity” value (HIPK1(h)) was 115%. The “Snk(h) % activity” value (Snk(h)) was 109%, the “SGK2(h) % activity” value (SGK2(h)) was 119% and the “IKKβ(h) % activity” value (IKKβ(h)) was 109%. The “CDK3/cyclinE(h) % activity” value (CDK3/cyclinE(h)) was 104%, the “CDK2/cyclinE(h) % activity” value (CDK2/cyclinE(h)) was 112% and the “c-RAF(h) % activity” value (c-RAF(h)) was 115%. The “DAPK1(h) % activity” value (DAPK1(h)) was 113% and the “Hck(h) % activity” value (Hck(h)) was 107%.

— US10562947B2, “Compositions and methods for preventing or treating diseases, conditions or processes characterized by aberrant fibroblast proliferation and extracellular matrix deposition” (MOERAE MATRIX, INC., priority 2011, dated 2020)
